Experimental data reported in PMC7856035 (Neuropharmacology, 2020).

The chains behind the UniProt entries cited, without tags or fusion partners. Where a name states a change or a piece, a line headed by the entry shows the natural chain unless it says otherwise.
UniProt Q62758: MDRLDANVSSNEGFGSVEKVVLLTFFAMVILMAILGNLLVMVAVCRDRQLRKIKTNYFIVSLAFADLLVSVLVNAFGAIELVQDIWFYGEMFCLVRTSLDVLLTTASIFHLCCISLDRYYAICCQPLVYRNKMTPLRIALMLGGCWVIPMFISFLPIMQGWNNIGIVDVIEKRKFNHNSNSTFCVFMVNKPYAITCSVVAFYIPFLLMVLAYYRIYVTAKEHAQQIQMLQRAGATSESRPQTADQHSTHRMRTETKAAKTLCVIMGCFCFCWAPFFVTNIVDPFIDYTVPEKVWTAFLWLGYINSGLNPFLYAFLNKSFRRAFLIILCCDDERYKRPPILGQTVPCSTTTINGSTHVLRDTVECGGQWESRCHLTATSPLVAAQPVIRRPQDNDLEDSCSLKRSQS

Biological target: 5-HT4 receptor (Rattus norvegicus, UniProt Q62758)

NCCc1c[nH]c2ccc(O)cc12 [5-HT, serotonin]
EC50: 4.53 nM
